Laboratory results taken from ChEMBL document CHEMBL3763133, “4-Arylbenzenesulfonamides as Human Carbonic Anhydrase Inhibitors (hCAIs): Synthesis by Pd Nanocatalyst-Mediated Suzuki-Miyaura Reaction, Enzyme Inhibition, and X-ray Crystallographic Studies” (J Med Chem, 2016).

Target: Carbonic anhydrase 9 (Homo sapiens, UniProt Q16790)
Assay: Inhibition of human carbonic anhydrase 9 incubated for 15 mins prior to testing by CO2 hydration-based stopped flow assay

CC(C)c1ccccc1-c1ccc(S(N)(=O)=O)cc1
Ki: 208 nM

Cc1ccccc1-c1ccc(S(N)(=O)=O)cc1
Ki: 20.1 nM
